# Read-outs that look alike come from different tables or passages of the source.
# What was measured:
# S. aureus ATCC 43300 = assay type: cell-based; details: microbroth dilution, MHB, 37 °C, 16–20 h, triplicate
# Protocol: The microbroth dilution method was used to evaluate the MIC values of new derivative peptides. […] The MIC value was defined as the lowest concentration where no visible bacteria growth occurred after overnight incubation. CRO was used as the positive control. All assays were conducted in triplicate.
# S. hyicus NCTC 10350 [1] = test: Time-killing curves; assay type: cell-based; details: 2× and 4× MIC; 1 × 10^5 CFU/mL in MHB; colony counting
# Protocol: Time-kill curves were performed to assess the bactericidal rates of peptides against S. hyicus NCTC 10350 [25]. […] The samples were taken at regular intervals for colony counting. Cells treated with PBS and CRO were used as the negative control and positive control.
# [2] = tested on: intracellular S. hyicus NCTC 10350 in Hacat cells; assay type: cell-based; details: 24 h treatment, mean, n = 3
# Protocol: Hacat cells (2.5 × 10^5 cells/mL) were dispensed into a 12-well plate for 24 h. Besides, the mid-log phase S. hyicus NCTC 10350 (2.5 × 10^7 CFU/mL) were coincubated with Hacat cells for 0.5 h. Then, lysostaphin was supplemented to kill extracellular bacteria. Hereafter, cells were treated with peptides or CRO for 24 h and lysed with lysis buffer. The intracellular bacteria were processed for colony counting.
# mouse erythrocytes = test: Hemolysis; assay type: cell-based; details: at 256 μg/mL; 8% (v/v) mouse erythrocytes in 0.9% NaCl, 37 °C, 1 h, 540 nm; n = 3
# Protocol: The hemolytic activity of peptides against fresh mouse erythrocytes was evaluated as described previously. In brief, 8% (v/v) erythrocyte solution in 0.9% NaCl was mixed with peptide solution (1–256 μg/mL) in an equal volume; then the mixtures were incubated at 37 °C for 1 h, centrifuged at 5000 rpm for 5 min and measured at 540 nm on a microplate reader. The absorbance of 0.9% NaCl (A0) and 0.1% Triton X-100 (A100) was used as controls. The hemolysis percentages of peptide were calculated by the following equation: Hemolysis (%) = [(A − A0)/(A100 − A0)] × 100.
# Hacat cells = test: Cytotoxicity, MTT assay; assay type: cell-based; details: within 256 μg/mL (1–256 μg/mL), n = 3
# Protocol: The cytotoxicity of peptides toward Hacat cells was determined by the 3-(4,5-dimethylthiazol-2-yl)-2,5-diphenyltetrazolium bromide (MTT) assay according to a previous study.
# S. hyicus NCTC 10350 [3] = test: Thermal stability, inhibition zone assay; assay type: physicochemical; details: 1 h, 64 μg/mL, inhibition zone against S. hyicus NCTC 10350, triplicate
# Protocol: (§1) The stability of NZL or NZ2114 against S. hyicus NCTC 10350 was conducted by inhibition zone assays. To evaluate the thermal stability, 64 μg/mL NZL or NZ2114 was incubated at different temperatures (20 °C, 40 °C, 60 °C, 80 °C, and 100 °C) for 1 h. Besides, aliquots of NZL or NZ2114 were dissolved in different pH buffers in a range from 2.0 to 10.0 at 37 °C for 3 h to analyze the pH stability. NZL or NZ2114 was mixed with pepsin or trypsin solutions at a ratio of 10:1 (w/w) to determine the protease stability. The untreated peptides and buffers alone were used as positive controls and negative controls, respectively. All assays were conducted in triplicate.
# S. hyicus NCTC 10350 [4] = test: pH stability, inhibition zone assay; assay type: physicochemical; details: 3 h, triplicate
# Protocol: as §1
# S. hyicus NCTC 10350 [5] = test: Mouse peritonitis model, survival; assay type: in vivo; details: ICR mice, S. hyicus NCTC 10350 10^9 CFU i.p., 7 days, 6 mice/group
# Protocol: The mice (6 mice/group) were intraperitoneally infected with the exponential phase S. hyicus NCTC 10350 cells (1 × 10^9 CFU/mL, 1 mL) to establish a mouse peritonitis model. […] Survival of mice was recorded daily for 7 days.
# S. hyicus NCTC 10350 [6] = test: Mouse peritonitis model, bacterial translocation; assay type: in vivo; details: 10 mg/kg; 24 h post-treatment; mean, n = 5
# Protocol: (§2) Likewise, mice (15 mice/group) were injected with the exponential phase S. hyicus NCTC 10350 cells (1 × 10^9 CFU/mL, 1 mL) and treated with 10 mg/kg peptides or 60 mg/kg CRO. After 2 and 24 h post-treatment, sera were collected to test the levels of cytokines using enzyme linked immunosorbent assay (ELISA) kit. To evaluate bacterial translocation, organs were harvest from mice at 24-h post-treatment for colony counting; then, organs were removed from mice at 5 d post-treatment and observed through a light microscope to assess organ injury. The uninfected mice, the treated mice with CRO or PBS were served as the blank control, positive and negative control, respectively.
# IL-1β = test: Mouse peritonitis model, serum cytokine ELISA; assay type: in vivo; details: 10 mg/kg
# Protocol: as §2
# IL-6 = test: Mouse peritonitis model, serum cytokine ELISA; assay type: in vivo; details: 10 mg/kg
# Protocol: as §2
# TNF-α = test: Mouse peritonitis model, serum cytokine ELISA; assay type: in vivo; details: 10 mg/kg
# Protocol: as §2
# S. hyicus NCTC 10350 [7] = test: Mouse peritonitis model, organ injury by light microscope; assay type: in vivo; details: 10 mg/kg, organs harvested at 5 d
# Protocol: as §2
smiles,measurement,setting,value
CC[C@H](C)[C@@H]1NC(=O)[C@H](CO)NC(=O)[C@H](CCCCN)NC(=O)[C@@H]2CSSC[C@@H](C(=O)N[C@@H](Cc3ccc(O)cc3)C(=O)O)NC(=O)[C@H](CCCCN)NC(=O)[C@@H]3CSSC[C@H](NC(=O)[C@H](CCCNC(=N)N)NC(=O)[C@H](CC(C)C)NC(=O)[C@H](CC(=O)O)NC(=O)[C@H](CC(=O)O)NC(=O)[C@H](CCC(=O)O)NC(=O)[C@H](CC(N)=O)NC(=O)[C@H](Cc4c[nH]c5ccccc45)NC(=O)[C@@H]4CCCN4C(=O)CNC(=O)[C@H](CC(N)=O)NC(=O)[C@@H](NC(=O)CNC(=O)[C@H](Cc4ccccc4)NC(=O)CN)CSSC[C@H](NC(=O)[C@H](Cc4ccc(O)cc4)NC(=O)CNC(=O)CNC(=O)[C@H](CCCCN)NC(=O)[C@H](Cc4ccc(O)cc4)NC(=O)CNC(=O)[C@H](CCCCN)NC1=O)C(=O)N[C@@H](C)C(=O)N[C@@H](CCCCN)C(=O)NCC(=O)NCC(=O)N[C@@H](Cc1ccccc1)C(=O)N[C@@H](C(C)C)C(=O)N3)C(=O)N[C@@H](Cc1c[nH]cn1)C(=O)N[C@@H](CC(N)=O)C(=O)N[C@@H](Cc1c[nH]cn1)C(=O)N2 [NZ2114],MIC,"S. aureus ATCC 43300; 1 × 10^5 CFU/mL, peptides 1–256 μg/mL",4 µg/mL
same,MIC,S. aureus ATCC 43300,0.91 µM
same,Time within which S. hyicus NCTC 10350 cells were killed completely,S. hyicus NCTC 10350 [1],≤ 8 h
same,Decrease of intracellular S. hyicus,[2]; 10× MIC,88.53%
same,Killing rate of intracellular S. hyicus,[2]; 1000× MIC,99.85%
same,Maximum hemolysis,mouse erythrocytes,1.35%
same,Minimum cell viability,Hacat cells,58.21%
same,Thermal stability,S. hyicus NCTC 10350 [3]; 20 to 80 °C,good thermal stability
same,Activity after heating,S. hyicus NCTC 10350 [3]; 100 °C,no activity
same,pH stability,"S. hyicus NCTC 10350 [4]; pH 2 to 10, 37 °C, inhibition zone against S. hyicus NCTC 10350",retained strong stable activity
same,Activity in the acidic environment,"S. hyicus NCTC 10350 [4]; pH 4, 37 °C, inhibition zone against S. hyicus NCTC 10350, relative to untreated peptide",86%
same,Survival rate,S. hyicus NCTC 10350 [5]; 5 mg/kg i.p. at 2 h and 8 h post-infection,33.3%
same,Survival rate,S. hyicus NCTC 10350 [5]; 10 mg/kg i.p. at 2 h and 8 h post-infection,83.3%
same,Bacterial counts in blood,S. hyicus NCTC 10350 [6],0.12 Log10 CFU/0.1 g
same,Bacterial counts in kidneys,S. hyicus NCTC 10350 [6],3.39 Log10 CFU/0.1 g
same,Bacterial counts in livers,S. hyicus NCTC 10350 [6],1.90 Log10 CFU/0.1 g
same,Bacterial counts in lungs,S. hyicus NCTC 10350 [6],2.87 Log10 CFU/0.1 g
same,Bacterial counts in spleens,S. hyicus NCTC 10350 [6],4.41 Log10 CFU/0.1 g
same,Serum level of IL-1β,IL-1β; 2 h after treatment,78.24 pg/mL
same,Serum level of IL-1β,IL-1β; 24 h after treatment,14.47 pg/mL
same,Serum level of IL-6,IL-6; 2 h after treatment,958.45 pg/mL
same,Serum level of IL-6,IL-6; 24 h after treatment,78.28 pg/mL
same,Serum level of TNF-α,TNF-α; 2 h after treatment,177.47 pg/mL
same,Serum level of TNF-α,TNF-α; 24 h after treatment,4.01 pg/mL
same,"Organ injury (livers, spleens, lungs, kidneys)",S. hyicus NCTC 10350 [7],apparently less damaged

# Reference: publication PMC8196787, “Design and Pharmacodynamics of Recombinant Fungus Defensin NZL with Improved Activity against Staphylococcus hyicus In Vitro and In Vivo” (International Journal of Molecular Sciences, 2021)
